Measurements taken from paper PMC12137875 (Nature Communications, 2025).

Protein sequences, listed by entry. Tags and fused reporters are not part of them.
UniProt Q96S37, whole entry L9Q/M22V/M25V/S27P/A51V/I63V/L64P/S66A: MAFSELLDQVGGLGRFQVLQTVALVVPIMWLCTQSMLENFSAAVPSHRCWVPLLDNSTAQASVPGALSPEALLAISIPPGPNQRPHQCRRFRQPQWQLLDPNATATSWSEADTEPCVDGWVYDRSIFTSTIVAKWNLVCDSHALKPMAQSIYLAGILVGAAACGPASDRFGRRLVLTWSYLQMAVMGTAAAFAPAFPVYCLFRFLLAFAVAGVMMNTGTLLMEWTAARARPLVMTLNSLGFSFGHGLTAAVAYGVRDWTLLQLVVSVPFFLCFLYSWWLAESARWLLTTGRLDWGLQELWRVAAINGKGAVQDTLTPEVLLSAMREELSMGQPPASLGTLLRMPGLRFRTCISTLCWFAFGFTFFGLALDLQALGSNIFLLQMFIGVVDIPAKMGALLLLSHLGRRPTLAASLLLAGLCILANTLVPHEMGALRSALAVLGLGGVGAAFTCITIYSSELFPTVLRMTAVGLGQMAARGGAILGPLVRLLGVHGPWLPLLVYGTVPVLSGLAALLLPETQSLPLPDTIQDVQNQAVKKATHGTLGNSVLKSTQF

What was measured:
hURAT1 = hURAT1 (Homo sapiens, UniProt Q96S37); type: cell-based; conditions: Competitive model, global non-linear fit, value with 95% confidence interval
URAT1CS = URAT1CS (Homo sapiens, UniProt Q96S37, A51V/I63V/L64P/L9Q/M22V/M25V/S27P/S66A, form not given); type: cell-based; conditions: HEK293T cells expressing hURAT1 versus URAT1CS

O=C(O)CSc1nnc(Br)n1-c1ccc(C2CC2)c2ccccc12 [LESU, lesinurad]
Ki (hURAT1): 348 nM | Inhibitor binding to URAT1CS as judged from IC50 (URAT1CS): high affinity
